Experimental data reported in US8722706B2, “Two phase bioactive formulations of bis-quaternary pyridinium oxime sulfonate salts” (dated 2014).

Assay: Stability of solid MMB4-DMS at 40° C., generation of 4-PA

In the case of “1,1′-methylenebis[4-[(hydroxyimino)methyl]-pyridinium]dimethanesulfonate”, the “4-Pyridine-aldoxime (% by wt.)” value (0 months) is reported as less than 0.04 % by wt, the “4-Pyridine-aldoxime (% by wt.)” value (1 month) is reported as less than 0.04 % by wt and the “4-Pyridine-aldoxime (% by wt.)” value (2 months) is reported as less than 0.04 % by wt. For the same substance, the “4-Pyridine-aldoxime (% by wt.)” value (3 months) was less than 0.04 % by wt, the “4-Pyridine-aldoxime (% by wt.)” value (4 months) was less than 0.04 % by wt and the “4-Pyridine-aldoxime (% by wt.)” value (6 months) was less than 0.04 % by wt. The “4-Pyridine-aldoxime (% by wt.)” value (9 months) was less than 0.04 % by wt, the “4-Pyridine-aldoxime (% by wt.)” value (12 months) was less than 0.04 % by wt and the “level of 4-PA” value (over a one year time period) was no more than 0.04 % by weight.
